# scFv variants of Ab-95 (light chain) against a SARS-CoV-2 spike peptide

Source: Engelhart et al. 2022 (doi:10.1038/s41597-022-01779-4), MIT Lincoln Laboratory and A-Alpha Bio; data file from the FLAb repository.

Binding partner: SARS-CoV-2 spike HR2 peptide, sequence PDVDLGDISGINAS.

Ab-95 is the parent antibody, in scFv form: VH, then a (GGGGS)3 linker, then VL. The heavy chain is unchanged in all variants.
VH: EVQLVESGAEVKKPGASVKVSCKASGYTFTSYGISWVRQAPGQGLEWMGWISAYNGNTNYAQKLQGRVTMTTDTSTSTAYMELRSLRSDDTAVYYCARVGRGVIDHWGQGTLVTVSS
VL: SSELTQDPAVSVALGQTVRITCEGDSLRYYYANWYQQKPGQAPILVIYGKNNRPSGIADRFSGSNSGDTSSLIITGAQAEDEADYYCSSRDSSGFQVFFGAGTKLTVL

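The starting antibody came from a phage panning campaign against this peptide. In library AAYL52, one, two or three CDR residues were substituted; doubles and triples were drawn at random. Affinity was read by AlphaSeq, a pooled yeast mating assay with surface-displayed partners. Mating (16 h, 30 °C) was followed by selection of diploids and sequencing of their barcodes. The ratio of observed to expected reads was calibrated, replicate by replicate, on BCL2-family standards whose Kd was known from biolayer interferometry. Each pool was mated in three replicate cultures.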

Substitutions are numbered in sequence along the VL above, starting at 1 (not Kabat). The read-out is the apparent dissociation constant on a log10 scale (nM): the lower, the stronger. "ND" marks a missing value. The strain was present, yet no cells mated with the target were sequenced in that replicate, which points to weak or no binding. For reference, the parent read 2.31 as the reference entry and 2.25 as a member of this library. Nonspecific signal, from three strains lacking the peptide, appeared in 28% of pairings of library AAYL52, centred on 3.91 (5% of these signals below 2.90); values are not corrected for it. Also given: how often the same scFv was detected with the empty control strains, with their mean in brackets.

| changes | replicates, log10 nM | signal with controls |
|---|---|---|
| P54G/S88E/D91N | 2.79 3.31 2.75 | 6 of 9 (4.11) |
| A32H/P54N/F98T | ND 5.17 3.25 | 3 of 9 (3.51) |
| N33T/R90Y/Q96T | ND ND ND | 4 of 9 (3.61) |
| R28M/D91T/G94C | ND 2.87 ND | 4 of 9 (4.28) |
| D25R/R53D/D91N | ND ND 3.44 | 3 of 9 (3.80) |
| E23H/S88E | 1.98 1.89 1.33 | 3 of 9 (3.49) |
| Y31L/N52W/S92E | 2.59 2.93 2.44 | 0 of 9 |
| K50E/S88C/D91W | 5.23 ND ND | 1 of 9 (3.81) |
| E23F/S26T/S89H | ND ND ND | 4 of 9 (4.16) |
| N33G/N52V/F98D | 2.93 3.89 4.37 | 1 of 9 (3.40) |
| R28Q/S88V/F98N | 2.59 4.26 4.06 | 4 of 9 (3.92) |
| G24H/Y30L/S92W | 3.22 ND 3.33 | 2 of 9 (4.21) |
| N33R/D91G/F95G | 4.14 3.76 ND | 1 of 9 (4.09) |
| G24M/D25P/K50R | 3.52 3.83 3.02 | 1 of 9 (4.31) |
| G49F | 4.55 4.99 ND | 4 of 9 (3.92) |
| N51M/N52H | ND 4.73 ND | 1 of 9 (3.18) |
| S26D/S93Y/Q96A | 4.33 4.19 2.91 | 4 of 9 (3.89) |
| E23G/R28Q/Y31I | 3.17 2.74 2.75 | 1 of 9 (4.97) |
| A32S/S89N/V97I | ND ND ND | 1 of 9 (2.70) |
| Y31M/R90F/S92R | 2.11 2.05 1.57 | 0 of 9 |
| A32M/S88M/S93R | 3.70 ND ND | 1 of 9 (4.00) |
| E23A/D25P/F95C | 2.49 1.92 2.11 | 3 of 9 (4.09) |
| G24S/G49P/K50E | ND ND ND | 2 of 9 (3.58) |
| S55F/S92A/F95V | 2.81 2.63 3.27 | 2 of 9 (4.06) |
| Y31P/S55G/Q96F | 1.99 1.90 1.62 | 3 of 9 (3.87) |
| S26A/L27T/P54N | 3.03 4.48 4.23 | 2 of 9 (4.04) |
| Y31C/S92H/Q96L | 2.15 2.19 2.56 | 1 of 9 (3.67) |
| N52P/S93R/F95M | 4.07 4.16 3.06 | 5 of 9 (3.18) |
| S55Q/S88K/D91F | 4.47 3.60 ND | 1 of 9 (3.17) |
| Y31V/G49P/G94S | 5.31 ND ND | 0 of 9 |
| D25N/S26N/D91M | ND ND ND | 3 of 9 (3.65) |

Top 4 of the variants detected in all replicates, tightest first:

{"changes": "E23H/S88E", "replicates, log10 nM": "1.98 1.89 1.33", "signal with controls": "3 of 9 (3.49)"}
{"changes": "Y31P/S55G/Q96F", "replicates, log10 nM": "1.99 1.90 1.62", "signal with controls": "3 of 9 (3.87)"}
{"changes": "Y31M/R90F/S92R", "replicates, log10 nM": "2.11 2.05 1.57", "signal with controls": "0 of 9"}
{"changes": "E23A/D25P/F95C", "replicates, log10 nM": "2.49 1.92 2.11", "signal with controls": "3 of 9 (4.09)"}